Experimental data from US10329299B2, “Heterocyclic compounds and uses thereof” (Infinity Pharmaceuticals, Inc., priority 2013, dated 2019).

By UniProt entry, the sequences of proteins in these tests, tags left out. Where a name states a change or a piece, a line headed by the entry shows the natural chain unless it says otherwise.
UniProt P42336, whole entry: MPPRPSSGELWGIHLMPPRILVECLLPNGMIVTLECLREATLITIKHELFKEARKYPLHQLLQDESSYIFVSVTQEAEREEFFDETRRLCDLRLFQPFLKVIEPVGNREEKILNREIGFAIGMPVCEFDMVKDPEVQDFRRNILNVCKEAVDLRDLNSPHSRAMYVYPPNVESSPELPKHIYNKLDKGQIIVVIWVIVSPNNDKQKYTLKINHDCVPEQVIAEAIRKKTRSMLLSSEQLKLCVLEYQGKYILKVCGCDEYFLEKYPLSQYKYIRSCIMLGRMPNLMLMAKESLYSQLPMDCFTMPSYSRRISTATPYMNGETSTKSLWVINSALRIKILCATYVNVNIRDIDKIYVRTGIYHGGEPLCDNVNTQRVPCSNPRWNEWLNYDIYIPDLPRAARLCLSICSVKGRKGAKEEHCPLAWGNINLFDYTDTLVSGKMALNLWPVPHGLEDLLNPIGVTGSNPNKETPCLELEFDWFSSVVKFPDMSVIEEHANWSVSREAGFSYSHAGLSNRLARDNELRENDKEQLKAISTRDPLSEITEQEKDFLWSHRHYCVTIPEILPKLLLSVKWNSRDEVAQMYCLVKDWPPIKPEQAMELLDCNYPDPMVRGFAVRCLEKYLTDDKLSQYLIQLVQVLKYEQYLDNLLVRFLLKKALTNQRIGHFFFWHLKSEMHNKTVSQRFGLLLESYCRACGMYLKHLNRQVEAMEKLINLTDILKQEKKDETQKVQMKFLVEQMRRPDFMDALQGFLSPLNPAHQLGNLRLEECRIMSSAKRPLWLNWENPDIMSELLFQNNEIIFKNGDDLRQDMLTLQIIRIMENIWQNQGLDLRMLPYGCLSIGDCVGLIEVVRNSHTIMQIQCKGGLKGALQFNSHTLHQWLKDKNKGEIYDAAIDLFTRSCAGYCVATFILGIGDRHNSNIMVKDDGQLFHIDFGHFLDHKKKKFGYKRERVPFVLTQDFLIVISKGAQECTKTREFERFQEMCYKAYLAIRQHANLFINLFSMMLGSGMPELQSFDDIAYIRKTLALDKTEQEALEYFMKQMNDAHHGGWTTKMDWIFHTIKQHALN
UniProt P42338, whole entry: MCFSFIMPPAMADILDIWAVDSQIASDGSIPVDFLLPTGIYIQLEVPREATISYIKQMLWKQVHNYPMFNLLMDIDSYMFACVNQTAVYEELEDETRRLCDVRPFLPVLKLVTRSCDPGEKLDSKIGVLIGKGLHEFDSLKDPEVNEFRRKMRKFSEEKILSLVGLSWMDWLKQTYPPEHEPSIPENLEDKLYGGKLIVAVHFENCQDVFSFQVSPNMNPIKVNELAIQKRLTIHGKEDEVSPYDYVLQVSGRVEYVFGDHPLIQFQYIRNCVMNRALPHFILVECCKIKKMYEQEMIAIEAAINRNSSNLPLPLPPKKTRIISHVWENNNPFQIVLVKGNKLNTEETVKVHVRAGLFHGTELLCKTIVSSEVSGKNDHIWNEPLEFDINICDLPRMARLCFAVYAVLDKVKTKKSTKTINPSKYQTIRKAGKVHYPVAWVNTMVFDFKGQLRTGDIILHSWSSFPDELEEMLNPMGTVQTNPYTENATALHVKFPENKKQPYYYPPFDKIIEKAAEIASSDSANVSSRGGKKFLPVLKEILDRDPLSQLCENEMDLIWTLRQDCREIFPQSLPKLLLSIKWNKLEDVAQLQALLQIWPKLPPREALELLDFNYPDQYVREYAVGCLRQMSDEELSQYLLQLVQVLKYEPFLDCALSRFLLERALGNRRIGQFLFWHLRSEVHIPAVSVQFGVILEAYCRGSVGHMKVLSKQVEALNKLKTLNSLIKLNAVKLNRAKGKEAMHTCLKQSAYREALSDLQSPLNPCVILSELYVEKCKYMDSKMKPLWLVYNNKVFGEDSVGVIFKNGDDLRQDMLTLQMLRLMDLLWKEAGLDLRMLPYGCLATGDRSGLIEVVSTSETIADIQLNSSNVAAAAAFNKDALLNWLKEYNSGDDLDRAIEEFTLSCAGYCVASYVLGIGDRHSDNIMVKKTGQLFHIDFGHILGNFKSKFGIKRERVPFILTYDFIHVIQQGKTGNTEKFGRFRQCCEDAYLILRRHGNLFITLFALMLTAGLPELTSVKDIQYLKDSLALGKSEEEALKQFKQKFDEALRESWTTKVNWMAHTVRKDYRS
UniProt O00329, whole entry: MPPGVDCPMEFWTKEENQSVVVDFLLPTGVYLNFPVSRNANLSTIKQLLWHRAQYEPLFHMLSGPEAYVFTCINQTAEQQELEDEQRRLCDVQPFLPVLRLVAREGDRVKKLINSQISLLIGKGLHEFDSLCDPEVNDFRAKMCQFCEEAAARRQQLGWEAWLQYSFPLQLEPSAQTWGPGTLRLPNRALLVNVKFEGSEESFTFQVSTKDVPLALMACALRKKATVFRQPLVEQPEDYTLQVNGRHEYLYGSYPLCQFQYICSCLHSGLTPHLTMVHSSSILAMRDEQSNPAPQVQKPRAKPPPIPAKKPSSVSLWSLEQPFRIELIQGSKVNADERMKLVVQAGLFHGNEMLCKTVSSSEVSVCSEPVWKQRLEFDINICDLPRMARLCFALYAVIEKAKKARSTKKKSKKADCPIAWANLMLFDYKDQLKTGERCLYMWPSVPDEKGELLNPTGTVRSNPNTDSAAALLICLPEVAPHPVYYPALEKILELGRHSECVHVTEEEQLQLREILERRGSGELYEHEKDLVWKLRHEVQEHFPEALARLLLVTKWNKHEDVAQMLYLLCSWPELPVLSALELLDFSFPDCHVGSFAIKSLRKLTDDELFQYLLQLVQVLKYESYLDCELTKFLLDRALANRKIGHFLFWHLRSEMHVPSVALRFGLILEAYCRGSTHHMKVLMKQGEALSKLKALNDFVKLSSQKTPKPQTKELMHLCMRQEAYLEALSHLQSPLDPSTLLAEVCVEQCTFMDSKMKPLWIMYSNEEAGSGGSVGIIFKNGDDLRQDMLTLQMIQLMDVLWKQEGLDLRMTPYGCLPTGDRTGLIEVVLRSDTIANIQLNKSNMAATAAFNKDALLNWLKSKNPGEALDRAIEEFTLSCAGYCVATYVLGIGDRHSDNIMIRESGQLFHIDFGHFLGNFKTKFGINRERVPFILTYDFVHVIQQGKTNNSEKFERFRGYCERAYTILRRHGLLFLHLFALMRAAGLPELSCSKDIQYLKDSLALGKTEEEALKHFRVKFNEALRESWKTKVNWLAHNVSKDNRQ
UniProt P48736, whole entry: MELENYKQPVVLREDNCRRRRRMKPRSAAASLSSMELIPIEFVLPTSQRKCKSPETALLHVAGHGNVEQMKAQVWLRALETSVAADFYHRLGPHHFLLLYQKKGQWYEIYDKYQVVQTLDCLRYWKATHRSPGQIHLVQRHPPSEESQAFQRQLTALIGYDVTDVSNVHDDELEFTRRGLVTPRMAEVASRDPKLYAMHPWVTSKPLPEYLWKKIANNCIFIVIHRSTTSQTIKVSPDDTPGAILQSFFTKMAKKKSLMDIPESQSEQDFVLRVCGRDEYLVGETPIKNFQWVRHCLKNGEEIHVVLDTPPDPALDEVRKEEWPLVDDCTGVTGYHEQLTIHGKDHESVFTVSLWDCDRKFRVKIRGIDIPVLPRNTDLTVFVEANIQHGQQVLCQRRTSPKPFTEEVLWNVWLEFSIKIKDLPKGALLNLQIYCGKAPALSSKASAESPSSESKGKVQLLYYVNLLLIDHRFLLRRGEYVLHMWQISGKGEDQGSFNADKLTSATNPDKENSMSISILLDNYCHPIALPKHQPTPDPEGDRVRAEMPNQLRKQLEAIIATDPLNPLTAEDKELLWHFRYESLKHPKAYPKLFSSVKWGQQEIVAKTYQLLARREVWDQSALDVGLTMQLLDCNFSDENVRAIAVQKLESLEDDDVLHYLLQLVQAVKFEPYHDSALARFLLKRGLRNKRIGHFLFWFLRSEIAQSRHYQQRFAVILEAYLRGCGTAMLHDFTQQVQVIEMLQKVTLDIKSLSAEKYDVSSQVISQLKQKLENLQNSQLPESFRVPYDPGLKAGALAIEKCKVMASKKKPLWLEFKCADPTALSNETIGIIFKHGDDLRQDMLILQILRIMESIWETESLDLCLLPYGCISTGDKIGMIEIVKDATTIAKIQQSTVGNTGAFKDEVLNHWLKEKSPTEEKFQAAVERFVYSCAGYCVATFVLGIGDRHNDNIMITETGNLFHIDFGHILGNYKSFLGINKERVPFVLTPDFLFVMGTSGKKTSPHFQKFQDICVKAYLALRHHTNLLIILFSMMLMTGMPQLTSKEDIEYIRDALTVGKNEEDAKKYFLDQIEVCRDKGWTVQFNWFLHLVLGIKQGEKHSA
UniProt P27986, whole entry partner: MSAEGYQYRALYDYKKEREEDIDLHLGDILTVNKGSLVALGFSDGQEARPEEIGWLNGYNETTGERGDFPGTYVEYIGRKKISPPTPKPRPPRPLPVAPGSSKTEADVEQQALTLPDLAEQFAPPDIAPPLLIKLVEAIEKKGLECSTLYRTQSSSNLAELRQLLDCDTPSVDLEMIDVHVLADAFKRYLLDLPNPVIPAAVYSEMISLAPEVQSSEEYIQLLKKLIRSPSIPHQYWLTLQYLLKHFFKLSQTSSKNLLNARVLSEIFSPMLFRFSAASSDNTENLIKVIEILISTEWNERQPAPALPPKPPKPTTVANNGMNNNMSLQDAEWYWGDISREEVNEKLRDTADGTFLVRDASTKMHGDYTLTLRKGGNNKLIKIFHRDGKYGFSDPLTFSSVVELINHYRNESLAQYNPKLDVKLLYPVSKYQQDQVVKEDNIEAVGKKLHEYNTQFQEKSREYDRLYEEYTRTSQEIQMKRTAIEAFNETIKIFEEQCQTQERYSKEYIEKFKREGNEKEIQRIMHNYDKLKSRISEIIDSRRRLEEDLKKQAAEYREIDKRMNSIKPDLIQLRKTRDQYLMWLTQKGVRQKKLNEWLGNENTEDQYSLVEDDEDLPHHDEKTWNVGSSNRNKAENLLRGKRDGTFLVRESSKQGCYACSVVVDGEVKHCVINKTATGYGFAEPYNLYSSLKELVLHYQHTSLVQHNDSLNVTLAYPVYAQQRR

Columns and labels:
Type in all cases: biochemical
[1] = molecular target: α isoform of human Class I PI3 kinases (Homo sapiens (Human), UniProt P42336); assay: PI3-Kinase Promega ADP-Glo Max assay, α isoform; details: read-out: PI3K α IC50
[2] = molecular target: β isoform of human Class I PI3 kinases (Homo sapiens (Human), UniProt P42338); assay: PI3-Kinase Promega ADP-Glo Max assay, β isoform; details: read-out: PI3K β IC50
[3] = molecular target: δ isoform of human Class I PI3 kinases (Homo sapiens (Human), UniProt O00329); assay: PI3-Kinase Promega ADP-Glo Max assay, δ isoform; details: read-out: PI3K δ IC50
[4] = molecular target: γ isoform of human Class I PI3 kinases (Homo sapiens (Human), UniProt P48736); assay: PI3-Kinase Promega ADP-Glo Max assay, γ isoform

Cc1ccnc2c(C(=O)N[C@@H](C)c3cc4cccc(C#Cc5cnn(C)c5)c4c(=O)n3-c3ccccc3)c(N)nn12
IC50 [1]: 5 to 10 µM
IC50 [2]: 5 to 10 µM
IC50 [3]: 5 to 10 µM
PI3K δ/PI3K γ IC50 (selectivity) ([4]; ratio of PI3K δ IC50 to PI3K γ IC50): X (X = 10 to <50)
IC50 ([4]; read-out: PI3K γ IC50): 100 to 500 nM
